# Binding of CDR-mutated scFvs to a peptide of the spike HR2 region

Data: MIT Lincoln Laboratory AlphaSeq set, Engelhart et al. 2022, doi:10.1038/s41597-022-01779-4, as distributed in FLAb.

Antigen: PDVDLGDISGINAS, a 14-residue peptide of the SARS-CoV-2 spike HR2 region.

The variants keep the light chain, the linker and the frameworks of Ab-91 (scFv order VL, the linker GGGGSGGGGSGGGGS, VH).
VL: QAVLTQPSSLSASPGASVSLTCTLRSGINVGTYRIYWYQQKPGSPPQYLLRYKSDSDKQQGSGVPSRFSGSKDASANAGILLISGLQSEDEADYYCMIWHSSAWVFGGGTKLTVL
VH: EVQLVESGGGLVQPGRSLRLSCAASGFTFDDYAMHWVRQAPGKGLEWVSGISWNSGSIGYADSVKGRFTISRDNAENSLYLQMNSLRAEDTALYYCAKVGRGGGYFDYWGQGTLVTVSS

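The parent was found by panning a naive human phage display library on the peptide. In library AAYL51, one, two or three CDR residues were substituted; doubles and triples were drawn at random. AlphaSeq pools MATa yeast showing the antibodies with MATalpha yeast showing the peptide. After mating in shaken culture at 30 °C for 16 h, diploids were selected and their barcode pairs sequenced. Read counts were normalised to the haploid input and turned into Kd by a linear fit to BCL2-family pairs of known affinity, for each replicate. The assay was run in three technical replicates.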

Positions count from residue 1 of the parent VH; Y32S puts S in place of Y.
Affinities are written as log10 Kd with Kd in nM; a lower number is a better binder.
A mean of the replicates is given; it leaves out those without a signal.
"nd" marks a missing value. The strain was present, yet no cells mated with the target were sequenced in any replicate, which points to weak or no binding.
In this assay the parent's reference entry averaged 1.86; its copy inside this library read 0.88.
Nonspecific signal, from three strains lacking the peptide, appeared in 21% of pairings of library AAYL51, centred on 4.54 (5% of these signals below 3.26); values are not corrected for it.

| changes | mean, log10 nM | detected |
|---|---|---|
| Y32S/D62S/G103R | 4.29 | 3 of 3 |
| G50R/S57Q/G104S | 3.19 | 1 of 3 |
| A33I/G50N/A61L | nd | 0 of 3 |
| D30F/G100M/G103F | 4.47 | 1 of 3 |
| D31G/S63V/Y105H | nd | 0 of 3 |
| N54D/G102R/G103V | 4.91 | 1 of 3 |
| I58M/G103P/G104F | 4.19 | 2 of 3 |
| F29N/A33E | 5.25 | 1 of 3 |
| N54C/S57G | 3.64 | 1 of 3 |
| G26D/Y60V/Y105W | 5.40 | 1 of 3 |
| Y32N/V99D/Y105Q | nd | 0 of 3 |
| G26Y/H35P/V64N | 5.69 | 2 of 3 |
| G59N/A61C/G103V | nd | 0 of 3 |
| Y32A/S55I/G59K | nd | 0 of 3 |
| D30W/G59H/R101T | nd | 0 of 3 |
| I58E/G102V | 3.32 | 1 of 3 |
| G26D/S52G/G102Y | nd | 0 of 3 |
| T28W/S55I/D107Y | 3.88 | 1 of 3 |
| D30R/S63Q | 4.20 | 2 of 3 |
| D30S/A33G/G50E | 4.52 | 2 of 3 |
| T28D/S55Y/I58W | 4.78 | 2 of 3 |
| S52Y/A61Y/K65C | nd | 0 of 3 |
| Y32A/D62P/G100K | nd | 0 of 3 |
| D30Y/A33W/G50A | 4.68 | 1 of 3 |
| M34K/G103W/F106V | 6.21 | 1 of 3 |
| G26S/N54A/G102N | nd | 0 of 3 |
| F27T/F29R/G103D | 4.67 | 2 of 3 |
| G26H/F27D/D30S | 4.40 | 3 of 3 |
| F29R/I51Q/R101E | nd | 0 of 3 |
| Y60D/K65I/Y105D | 4.54 | 2 of 3 |
| G26V/I51P/S52T | nd | 0 of 3 |
| V64L/V99F/F106H | 1.12 | 3 of 3 |
| D30N/Y60N/K65S | nd | 0 of 3 |
| F27P/R101N/Y105S | nd | 0 of 3 |
| V64D/R101S/F106I | nd | 0 of 3 |
| S52D/R101W/G104N | 3.80 | 3 of 3 |
| Y32M/H35Q/G56V | nd | 0 of 3 |
| F27G/V64P/G104W | nd | 0 of 3 |
| M34H/S57L/F106Y | nd | 0 of 3 |
| A33L/G102H | nd | 0 of 3 |
| G26Y/Y32M/K65G | nd | 0 of 3 |
| G26L/G102Y/G104Y | 5.07 | 2 of 3 |
| H35T/N54S/A61C | 4.54 | 1 of 3 |
| D31G/D62E/Y105K | 3.45 | 3 of 3 |
| F27A/H35Q/S63K | nd | 0 of 3 |
| Y32S/W53Y/G59A | 4.46 | 1 of 3 |
| W53K/S55D/G59T | 5.40 | 2 of 3 |
| F29K/G100Y/D107F | 3.52 | 1 of 3 |
| A33Q/A61D/G100Q | 4.12 | 2 of 3 |
| Y32E/K65I/F106H | nd | 0 of 3 |
| I51W/G103A/Y105N | 5.07 | 1 of 3 |
| S57W/D107K | 5.22 | 2 of 3 |
| G26M/Y60W | nd | 0 of 3 |
| F29Y/S57R/Y60S | 5.09 | 1 of 3 |
| V64C/K65T/G103P | nd | 0 of 3 |
| G50N/N54M/A61R | nd | 0 of 3 |
| M34F/V99Y/D107N | 3.96 | 2 of 3 |
| G56P/K65R/D107C | 4.59 | 1 of 3 |
| A33Y/G50Y | nd | 0 of 3 |
| M34V/G100K | nd | 0 of 3 |
| H35N/G56M/S63Q | nd | 0 of 3 |
| F27M/Y32V/G102A | nd | 0 of 3 |
| T28S/D31T/G50T | nd | 0 of 3 |
| D31M/S52I/V99K | nd | 0 of 3 |
| D62C/V99L/R101G | nd | 0 of 3 |
| D30W/G50K/V99D | nd | 0 of 3 |
| Y60N/G103Y | 4.32 | 1 of 3 |
| F29P/H35W/G50V | 4.82 | 1 of 3 |
| M34L/G50F/D62L | nd | 0 of 3 |
| D62C/V64T | nd | 0 of 3 |
| F27D/F29S/M34I | 3.26 | 3 of 3 |

5 of these entries, quoted again:

{"changes": "F27P/R101N/Y105S", "mean, log10 nM": "nd", "detected": "0 of 3"}
{"changes": "Y60D/K65I/Y105D", "mean, log10 nM": "4.54", "detected": "2 of 3"}
{"changes": "S52Y/A61Y/K65C", "mean, log10 nM": "nd", "detected": "0 of 3"}
{"changes": "V64D/R101S/F106I", "mean, log10 nM": "nd", "detected": "0 of 3"}
{"changes": "D30W/G50K/V99D", "mean, log10 nM": "nd", "detected": "0 of 3"}